TDP1 cell noCPT – qHTS for Inhibitors of human tyrosyl-DNA phosphodiesterase 1 (TDP1): qHTS in cells in absence of CPT. DT40 Tdp1-/- hTDP1 cells, no CPT, ATP luminescence, 48 h. Potency, µM (top dose mostly 46.2 µM), without a hit: at the top dose activity change, negative = growth inhibition, usual class: inhibitors. 15% of 420,000 active. AID 686978, 2013; further: potency means the concentration at half of the fitted maximal effect; on the % scale 0 is the no-effect control and ±100 the full control effect; nearly all actives have a fitted effect of over 55% in size
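Chicken DT40 Tdp1-/- cells stably complemented with human TDP1 were seeded at 400 cells/well with DMSO in place of 20 nM camptothecin. After compound pinning, cells grew at least 48 hr at 37 °C; viability read by CellTiter-Glo luminescence.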
uPA generation – blocks generation of uPA at the cell surface; cell surface uPA generation assay, qHTS; Potency, µM (top dose mostly 38.3 µM), without a hit: top-dose activity change, negative = inhibition, hits mostly inhibitors; 0.31% of 330,000 active; active means well fitted inhibition curve with a large enough effect; inconclusive means small, poorly fitted or top-dose-only effect; inactive means no such curve, though single readings can be large or run the other way; tested in mouse RAW 264.7 cells; further: potency means the concentration at half of the fitted maximal effect; on the % scale 0 is the no-effect control and ±100 the full control effect; nearly all actives have a fitted effect of over 55% in size
DT40 TDP1 CPT – growth inhibition of DT40 Tdp1-/-;hTDP1 cells with camptothecin (screen for TDP1 inhibitors); 12% of 420,000 active; Potency, µM (series often up to 46.2 µM), for inactives: at the highest dose activity change, negative = growth inhibition, most hits filed as inhibitors; chicken DT40 Tdp1-/-;hTDP1 cells + 20 nM CPT, ATP luminescence, 48 h; further: potency means the concentration at half of the fitted maximal effect; on the % scale 0 is the no-effect control and ±100 the full control effect; nearly all actives have a fitted effect of over 55% in size
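Cell growth measured by CellTiter-Glo luminescence after a minimum 48 h, 37 C compound exposure with 20 nM CPT in Tdp1-knockout DT40 cells stably expressing hTDP1, seeded 400/well; qHTS titration format.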
TDP1 inh – TDP1 (human) enzyme inhibition | recombinant TDP1, AlphaScreen DNA substrate cleavage | 0.28% of 350,000 active | Potency, µM (titrated, usually from 130 µM), for the others: at the top dose activity change, negative = inhibition, hits mostly inhibitors | Q9NUW8; further: potency means the concentration at half of the fitted maximal effect; on the % scale 0 is the no-effect control and ±100 the full control effect; nearly all actives have a fitted effect of over 40% in size
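Signal: AlphaScreen proximity between streptavidin donor and anti-FITC acceptor beads on intact substrate. Reaction: Tdp1 1 nM, substrate 15 nM final, 5 min RT after 15 min compound preincubation.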
miR-21 reporter – miR-21 reporter, rising signal; Potency, µM (doses to about 38.3 µM), without a hit: at the top dose reporter change, positive = more light; HeLa miR-21 FLuc reporter, luciferase, 48 h; 340,000 tested, under 10 active; active = well fitted rising curve with a large enough effect; inconclusive = small, poorly fitted or top-dose-only effect; inactive = no such curve, though single readings can be large or run the other way;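 further: % of control where 0% means no effect; miR-21 action dims this reporter so a rising signal means less miR-21 action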
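HeLa cells endogenously expressing miR-21, stably carrying CMV-driven firefly luciferase with a downstream miR-21 binding site, 2000 cells/well. Titrations up to approximately 40 uM, 48 hours; luciferase luminescence read.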
* = called active by the depositor; u = inconclusive; x = no result; [ ] = dose if it differs, or a comment. Sampled rows, rich in hits. Any-hit rate of the full collection: about 16%. Unless noted, the call rests on the fitted dose curve; in most records, active means well fitted curve in the direction sought with a large enough effect; inconclusive means small, poorly fitted or top-dose-only effect, or another doubt; inactive means no such curve, though single readings can be large; an effect the other way counts as inactive or inconclusive.

Compound,TDP1 cell noCPT,uPA generation,DT40 TDP1 CPT,TDP1 inh,miR-21 reporter
Cc1c(C(=O)N2CCCCC2C)sc2ncnc(N3CCc4ccccc4C3)c12 (configuration not stated),13µM*,5%,u,1%,7%
Cc1c(C(=O)Nc2ccc3c(c2)OCCO3)sc2ncnc(N3CCCCC3C)c12 (configuration not stated),15µM*,-1%,u,11%,-18%
Cc1c(C(=O)N2CCOCC2)sc2ncnc(N3CCc4ccccc4C3)c12,12µM*,3%,12µM*,4%,-14%
COc1cccc(C(=O)NC(C)c2cccc3ccccc23)c1OC (configuration not stated),u,3%,-29%,8%,22%
CC(C)(C)CN1CCNC(=O)C1CC(=O)N1CCOc2ccccc2C1 (configuration not stated),u,0%,-11%,0%,-1%
CN(Cc1cccc(F)c1)C(=O)CN1CCN(S(=O)(=O)c2ccc3c(c2)OCCCO3)CC1,0%,6%,-21%,1%,x
Cc1cc(OCC(=O)N(C)Cc2ccccc2)ccc1Cl,u,4%,-9%,x,-53%
CN(Cc1ccc(F)cc1)C(=O)CN1CCN(S(=O)(=O)c2ccc3c(c2)OCCCO3)CC1,u,x,-26%,x,x
CN(Cc1ccccc1)C(=O)CN1CCN(S(=O)(=O)c2ccc(Cl)c(Cl)c2)CC1,18µM*,15%,u,2%,x
Cc1cc(S(=O)(=O)N2CCN(CC(=O)N(C)Cc3ccccc3)CC2)ccc1Br,15µM*,-5%,u,2%,x
Cc1cc(OCC(=O)N(C)Cc2ccccc2)ccc1Br,23µM*,9%,u,x,-49%
O=C(NCCCN1CCOCC1)c1c(F)cccc1F,0%,x,1%,0%,-5%
COc1ccc(S(=O)(=O)n2ccc(C(C)Oc3ccc(-c4ccccc4)c(F)c3)n2)cc1 (configuration not stated),18µM*,6%,26µM*,-3%,26%
CC(Oc1ccc(-c2ccccc2)c(F)c1)c1ccn(S(=O)(=O)c2ccc(F)cc2)n1 (configuration not stated),u,7%,u,-10%,-2%
CC(C(=O)C12CC3CC(CC(C3)C1)C2)N1CCOCC1 (configuration not stated),u,-2%,u,x,-1%
Cc1ccc2cc(CN(CC3CCCO3)C(=S)NCc3ccco3)c(=O)[nH]c2c1C (configuration not stated),13µM*,-22%,u,5%,18%
CCc1ccc2[nH]c(=O)c(CN(CC3CCCO3)C(=S)NCc3ccco3)cc2c1 (configuration not stated),u,-17%,21µM*,7%,12%
CCN(CC)CCN(Cc1cc2cc(C)c(C)cc2[nH]c1=O)C(=S)NCc1ccco1,-20%,-5%,-24%,6%,1%
Cc1cc2cc(CN(CCN(C)C)C(=S)NCc3ccco3)c(=O)[nH]c2cc1C,13µM*,-5%,u,1%,1%
CCCCOc1ccc(C2C(C(=O)Nc3ccccc3OC)=C(C)Nc3nnnn32)cc1OC (configuration not stated),u,x,u,4%,-12%
Cc1cc(=O)oc2cc(OCC(=O)NC3CCCCC3)ccc12,-19%,x,13%,x,-11%
CCCCOC(=O)c1ccc(NC(=O)CSC2=Nc3ccccc3C3CC=NN23)cc1 (configuration not stated),u,-2%,23µM*,3%,-9%
CCc1nc2c(OCCOc3ccc(F)cc3)cccn2c1N(C=O)Cc1ccccc1,u,x,21µM*,x,x
CCc1nc2c(OCC(=O)C(C)(C)C)cccn2c1N(C=O)Cc1ccccc1,-6%,x,-2%,x,x
CCCOc1cccn2c(N(C=O)Cc3ccc(OC)cc3)c(CC)nc12,u,x,16µM*,x,x
CCc1nc2c(OCC3CCCCC3)cccn2c1N(C=O)Cc1ccc(OC)cc1,21µM*,x,21µM*,x,x
C=CCOc1cccn2c(N(C=O)Cc3ccc(OC)cc3)c(CC)nc12,12µM*,x,18µM*,x,x
CCc1nc2c(OCC(=O)N3CCOCC3)cccn2c1N(C=O)Cc1ccccc1,-3%,x,-6%,x,x
C=CCOc1cccn2c(N(C)C(=O)c3ccc(OC)cc3)c(CC)nc12,-22%,x,u,x,x
COP(=O)(OC)C(Nc1ccc(Cl)cc1)c1ccccc1 (configuration not stated),u,8%,-10%,x,-7%
Cc1ccccc1NC(=O)COC(=O)COc1ccc2c(c1)CCC2,-1%,10%,11%,-9%,x
CCSc1nnc2c(n1)OC(c1ccc(C)s1)Nc1ccccc1-2 (configuration not stated),u,x,u,-2%,-33%
CCCCN(C=O)c1c(CC)nc2c(OCCOc3ccccc3)cccn12,21µM*,x,u,x,x
CCCCN(C=O)c1c(CC)nc2c(OCCC)cccn12,u,x,-56%,x,x
COc1ccc(/C=C(\C#N)c2nc(-c3cc(Cl)ccc3OC)cs2)cc1,-17%,x,-16%,-2%[12.3 µM],-7%
CC1(Cc2cccc(F)c2)C(=O)Nc2ccc(-c3cccnc3)cc21 (configuration not stated),10µM*,x,12µM*,x,x

3 entries from above, with each value named.
> CCc1nc2c(OCC3CCCCC3)cccn2c1N(C=O)Cc1ccc(OC)cc1
  TDP1 cell noCPT = 21µM*; uPA generation = x; DT40 TDP1 CPT = 21µM*; TDP1 inh = x; miR-21 reporter = x
> C=CCOc1cccn2c(N(C=O)Cc3ccc(OC)cc3)c(CC)nc12
  TDP1 cell noCPT = 12µM*; uPA generation = x; DT40 TDP1 CPT = 18µM*; TDP1 inh = x; miR-21 reporter = x
> CCc1nc2c(OCC(=O)N3CCOCC3)cccn2c1N(C=O)Cc1ccccc1
  TDP1 cell noCPT = -3%; uPA generation = x; DT40 TDP1 CPT = -6%; TDP1 inh = x; miR-21 reporter = x

(listing goes on)
Compound,TDP1 cell noCPT,uPA generation,DT40 TDP1 CPT,TDP1 inh,miR-21 reporter
CC(=O)c1cccc(-c2ccc3c(c2)C(C)(Cc2ccc(S(C)(=O)=O)cc2)C(=O)N3)c1 (configuration not stated),-25%,x,u,x,x
COc1cccc(-c2cccc3c2NC(=O)C3(C)Cc2cccc(F)c2)c1 (configuration not stated),21µM*,x,u,x,x
CC1(Cc2ccc(Cl)cc2)C(=O)Nc2ccc(-c3cccnc3)cc21 (configuration not stated),12µM*,x,13µM*,x,x
COc1cccc(-c2n[nH]nc2C2=CC(=O)CC(C)(C)C2)c1,u,x,-28%,x,x
O=[N+]([O-])c1ccc(-c2cccnc2)cc1,-18%,1%,16%,x,x
CC1(Cc2cccc(C(F)(F)F)c2)C(=O)Nc2ccc(-c3ccc(F)c(Cl)c3)cc21 (configuration not stated),23µM*,x,u,x,x
O=C(NCC(=O)N1CCOCC1)c1ccc(Br)cc1,1%,1%,5%,4%,-23%
C[C@@H]1CN(S(=O)C(C)(C)C)[C@@H](CCO)/C1=C\CCO (some centres not stated),9%,12%,27%,x,x
O=C(CCN1C(=O)/C(=C/c2ccc3c(c2)OCO3)SC1=S)NNC(=O)c1cccnc1,u,-4%,u,5%,2%
